Measurements as given in PMC11432123, “Biophysical Studies of Amyloid-Binding Fluorophores to Tau AD Core Fibrils Formed without Cofactors” (International Journal of Molecular Sciences, 2024).

Biological target: the molecule itself
Assay: negative-stain transmission electron microscopy; 100 µM TADC, quiescent, 37 °C, 15 h and 30 h, no cofactor; 20 mM sodium phosphate pH 8, 1 mM DTT, 1.1 mM CaCl2; fibril formation (self-assembly)

B1: Tau AD core fragment (TADC, tau 306–378) (domain or fragment, UniProt P10636-8 306-378, looked up)
chain: VQIVYKPVDLSKVTSKCGSLGNIHHKPGGGQVEVKSEKLDFKDRVQSKIGSLDNITHVPGGGNKKIETHKLTF
notes: plasmid by gene synthesis (Genscript); source: E. coli, purified (heating at 80 °C, cation exchange, SEC of monomers after 7.5 M urea with 50 mM DTT)
binding result: binds
